This data set relates to Calu-3 cells. The experiment in a line: Cellular tolerability test: TEER of Calu-3 monolayers. The format is cell-based, human. Particulars: for TEER after 24 hours Mean [%]: after 24 h in cell culture following incubation; for TEER after 2 hours Mean [%]: in KRB. The source says: In addition to the physicochemical properties of drug formulations and their stability, either as solution or dispersed systems, it is helpful to investigate the cellular tolerability of such drug formulations in a cell culture test system. For this purpose the bronchial cell line Calu-3 was used as an in vitro model for toxicity assessment. Calu-3 represents a human submucosal adenocarcinoma cell line that forms tight, polarized and well differentiated monolayers with apical microvilli and tight junctional complexes. In contrast to other cell lines, Calu-3 cells generate extracellular mucus. […] In addition, it has been shown that loss of monolayer integrity is paralleled by a decrease in TEER to values below 600Ω·cm^2 and an increase in permeability. […] Since toxicity is paralleled by a loss of the monolayer integrity, a decrease in TEER of more than 50% is indicative for the toxicity of a test compound. […] The Calu-3 cell tests offer the possibility to investigate potential effects of the drug substance as well as the influence of excipients or formulation constituents.
TEER was determined in physiological Krebs Ringer buffer (KRB) for two hours after the application of the different formulations or excipients. A decrease of the measured resistance indicated an affection of intact epithelial cell-cell contacts (tight junctions), which is an extremely sensitive parameter to determine toxic effects. To assess whether such cell damage was reversible, the cells were incubated for 24 h in cell culture subsequently to the incubation with the test formulations.

As for Natrium EDTA, the “TEER after 24 hours Mean [%]” value was 42% (conc. (undiluted)), 56% (dilution 1:5) and 47% (dilution 1:10). Besides, the “TEER after 2 hours Mean [%]” value by setting is: (conc. (undiluted; stock concentration given with each formulation name)) 14%; (dilution 1:5) 42%; (dilution 1:10) 46%.

Source of the values: US20090025713A1, “Nebulised Antibiotics for Inhalation Therapy” (priority 2006, published 2009).
